The source of these data is patent publication US6773705B1, “Methods for diagnosing and treating autoimmune disease” (General Hospital Corporation, priority 1998, dated 2004).

This assay concerns NF-κB. Description: EMSA of NF-κB DNA-binding activity in nuclear extracts of TNF-α-treated spleen cells. Particulars: NOD mouse spleen cells; TNF-α 10 or 25 ng/ml; FIG. 8B.

TNF-α: the NF-κB activation entry was “little effect”.
